Bioassay records (PubChem BioAssay)
Nrf2 inh – inhibitors of Nrf2 signaling; A549 ARE-Fluc reporter, luciferase luminescence, 18-24 h; Potency, µM (series often up to 46 µM), without a hit: at the top dose activity change, negative = inhibition, most hits filed as inhibitors; 2.1% of 360,000 active; AID 504444; also: potency is read from the fitted curve at half-maximal effect; % is scaled to controls: 0 for no effect and ±100 for the full control effect; nearly all actives have a fitted effect of over 60% in size
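Cells were seeded and rested 2 h, then exposed to compounds for 18-24 h. CellTiter-Fluor was read first as a viability measure. BugLite was added 15 min before the final luminescent read of ARE-luciferase activity in A549 cells.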
Mito fusion act – blocks mitochondrial division or promotes mitochondrial fusion. S. cerevisiae fusion-defective mutant growth rescue, CellTiterGlo 48 h. Potency, µM (highest dose often 46.1 µM), for inactives: top-dose growth rescue (activation), usual class: activators. 0.23% of 320,000 active; also: potency is read from the fitted curve at half-maximal effect; % of control where 0% means no effect; nearly all actives have a fitted effect of over 45% in size
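Luminescent cell viability in 1536-well qHTS format served as the measure of rescued growth in ts fusion-mutant S. cerevisiae cultured on non-fermentable YPEG for 48 hours at 37C.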
Nrf2 activator – Nrf2 pathway activation; AREc32 ARE-luciferase reporter (MCF7-derived line), luminescence, 24 h; 0.31% of 410,000 active; Potency, µM (titrated, usually from 46.1 µM), inactives show top-dose activation, usual class: activators; also: potency is read from the fitted curve at half-maximal effect; % of control where 0% means no effect; nearly all actives have a fitted effect of over 65% in size
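Steps: seed AREc32_Fluc cells (1000/well, 5% FBS OPTI-MEM); incubate overnight at 37 deg C; add 23 nL compound; incubate 24 hr; add Steady-Glo; hold 30 min RT; read luminescence.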
A549 tox-1 – kills or reduces viability of A549 cells in Nrf2 counter-screen; 0.16% of 390,000 active; A549 ARE-Fluc cells, CellTiter-Fluor viability, 18-24 h; Potency, µM (titrated, usually from 46 µM), for inactives: at the highest dose activity change, negative = cytotoxicity, hits mostly inhibitors; also: potency is read from the fitted curve at half-maximal effect; % is scaled to controls: 0 for no effect and ±100 for the full control effect
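A549 ARE-Fluc cells in 5% FBS OPTI-MEM, 5000 cells/well, rested 2 h then exposed to compounds in concentration-response for 18-24 h at 37 °C. Viability by CellTiter-Fluor fluorescence (Ex 405/Em 525) after 30 min; luciferase luminescence (BugLite, 15 min, RT) read afterwards.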
miR-21 reporter – miR-21 reporter, rising signal; HeLa miR-21 FLuc reporter, luciferase, 48 h; Potency, µM (doses to about 38.3 µM), for inactives: at the highest dose reporter change, positive = more light; 340,000 tested, under 10 active; AID 2288; active = well fitted rising curve with a large enough effect; inconclusive = small, poorly fitted or top-dose-only effect; inactive = no such curve, though single readings can be large or run the other way;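 further: % of control where 0% means no effect; miR-21 action dims this reporter so a rising signal means less miR-21 action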
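Using DMEM plus 10% FBS, HeLa miR-21-FLuc cells are incubated with test compounds (final up to about 40uM) for 48 hours; firefly luciferase signal is then imaged following reagent-mediated lysis.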
FLuc enzyme inh – blocks purified firefly luciferase in Nrf2 counterscreen | shares compounds with Nrf2 inh | purified firefly luciferase, luminescence inhibition | 4% of 1,400 active | Potency, µM (doses to about 57.5 µM), for inactives: at the top dose activity change, negative = inhibition, most hits filed as inhibitors; also: potency is read from the fitted curve at half-maximal effect; % is scaled to controls: 0 for no effect and ±100 for the full control effect; nearly all actives have a fitted effect of over 65% in size
A549 tox-2 – A549 cytotoxicity, Nrf2 inhibitor counterscreen | shares compounds with Nrf2 inh | A549 ARE-Fluc cells, cytotoxicity counterscreen | Potency, µM (series often up to 46.1 µM), for inactives: at the highest dose activity change, negative = cytotoxicity, usual class: inhibitors | 2% of 1,400 active | AID 720523;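 also: potency is read from the fitted curve at half-maximal effect; cells exposed to compounds for 18 to 24 hours; % is scaled to controls: 0 for no effect and ±100 for the full control effect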
ARE-Fluc inh – confirmation of Nrf2 inhibitors in A549 ARE reporter cells | shares compounds with Nrf2 inh | A549 ARE-firefly luciferase reporter, luminescence | Potency, µM (doses to about 46.1 µM), for the others: top-dose activity change, negative = inhibition, hits mostly inhibitors | 74% of 1,400 active | AID 720524; also: potency is read from the fitted curve at half-maximal effect; % is scaled to controls: 0 for no effect and ±100 for the full control effect; nearly all actives have a fitted effect of over 65% in size
An asterisk follows results filed as active; ? = inconclusive; nt = not tested or not shown. A selection: hits, their analogues and other compounds. The true share with any hit is near 2.3%. Unless noted, calls follow the shape of the dose curve; as a rule, active = well fitted curve in the direction sought with a large enough effect; inconclusive = small, poorly fitted or top-dose-only effect, or another doubt; inactive = no such curve, though single readings can be large; an effect the other way counts as inactive or inconclusive.

Letter code: A = Nrf2 inh; B = Mito fusion act; C = Nrf2 activator; D = A549 tox-1; E = miR-21 reporter; F = FLuc enzyme inh; G = A549 tox-2; H = ARE-Fluc inh
1) CCc1nnc(NC(=O)[C@@H]2CCCN2C(=O)c2cccs2)s1
  A = 6.8%; B = nt; C = nt; D = 3.0%; E = nt; F = nt; G = nt; H = nt
2) CC12CC(c3ccccc3O1)N(C(=O)c1ccco1)C(=S)N2c1ccccc1 (stereo unspecified)
  A = 8.2µM*; B = 4.5%; C = 0.4%; D = ?; E = 11.1%; F = 2.5%; G = -13.7%; H = -15.5%
3) COc1ccc(C)cc1NC(=O)CSc1ccc(-c2ccccn2)nn1
  A = 3.66µM*; B = -13.8%; C = 6.5%; D = 1.6%; E = 5.2%; F = ?; G = -11.8%; H = 18.4µM*
4) COc1ccc(C)cc1NC(=O)CSc1ccc(-c2sc(C)nc2C)nn1
  A = 9.2µM*; B = 0.3%; C = -0.4%; D = -20.4%; E = -10.3%; F = ?; G = -18.9%; H = ?
5) Cc1cccc(NC(=O)CSc2ccc(-c3ccccn3)nn2)c1
  A = ?; B = nt; C = 0.3%; D = -5.3%; E = -5.6%; F = nt; G = nt; H = nt
6) CCC(=O)N1CCc2cc(Br)cc(S(=O)(=O)N3CCCC(C(=O)N(C)c4ccc(Br)cc4)C3)c21 (stereo unspecified)
  A = -19.8%; B = nt; C = 6.3%; D = -0.6%; E = 18.2%; F = nt; G = nt; H = nt
7) COc1ccc2c(c1)CCc1c(C(=O)Nc3c(C)nn(Cc4ccc(Cl)c(Cl)c4)c3C)noc1-2
  A = 4.61µM*; B = nt; C = -1.0%; D = -6.3%; E = -8.5%; F = -0.4%; G = -9.0%; H = 9.2µM*
8) COc1ccc2c(c1)CCc1c(C(=O)NCc3ccc(Cl)cc3)noc1-2
  A = ?; B = -4.9%; C = 0.2%; D = -20.0%; E = -6.8%; F = nt; G = nt; H = nt
9) Cc1cc(C(C)(C)C)cc(C)c1C[n+]1ccc2ccccc2c1
  A = 3.66µM*; B = -15.9%; C = -0.7%; D = -18.2%; E = ?; F = 3.3%; G = -5.1%; H = 2.31µM*
10) COc1cccc(-c2cn3c(n2)sc2cc(C(=O)NCCCc4ccccc4)ccc23)c1
  A = 8.2%; B = nt; C = 5.4%; D = -0.2%; E = -3.5%; F = nt; G = nt; H = nt

Letter code: A = Nrf2 inh; B = Mito fusion act; C = Nrf2 activator; D = A549 tox-1; E = miR-21 reporter; F = FLuc enzyme inh; G = A549 tox-2; H = ARE-Fluc inh
11) O=[N+]([O-])c1cccc2nc3ccccc3c(NCCCn3ccnc3[N+](=O)[O-])c12
  A = 0.146µM*; B = nt; C = 13.5%; D = ?; E = nt; F = ?; G = ?; H = nt
12) CCOC(=O)c1ccc(NC(=O)C2=C(C)C(=O)OC23CCN(C(C)=O)CC3)cc1
  A = 21.9%; B = nt; C = -0.5%; D = -2.9%; E = 0.4%; F = nt; G = nt; H = nt
13) Cc1cc(C)cc(NS(=O)(=O)c2ccc3c(c2)c(=O)n(C)c(=O)n3C)c1
  A = 8.2µM*; B = -1.7%; C = -1.0%; D = -22.4%; E = ?; F = 2.0%; G = -13.0%; H = 7.31µM*
14) Cn1c(=O)c2cc(S(=O)(=O)Nc3cc(C(=O)O)cc(C(=O)O)c3)ccc2n(C)c1=O
  A = 4.7%; B = -7.9%; C = -0.2%; D = 4.9%; E = -0.2%; F = nt; G = nt; H = nt
15) N=c1ccn2c(n1)OC1C(O)[C@@H](CO)O[C@H]12 (stereo partly specified)
  A = 0.164µM*; B = nt; C = nt; D = 2.2%; E = nt; F = -1.9%; G = -1.2%; H = nt
16) O=c1ccncn1C1OC(CO)C(O)C1O (stereo unspecified)
  A = 11.2%; B = nt; C = 2.1%; D = -5.1%; E = nt; F = nt; G = nt; H = nt
17) O=C1CCC2S/C(=C/Nc3ccc(C(F)(F)F)cc3)C(=O)N12 (stereo unspecified)
  A = 1.03µM*; B = 1.5%; C = -3.6%; D = 0.2%; E = ?; F = 10.7µM*; G = 2.3%; H = 4.11µM*
18) CCOC(=O)c1ccccc1NC(=O)c1sc2ccccc2c1Cl
  A = ?; B = nt; C = 4.3%; D = -2.2%; E = -15.6%; F = nt; G = nt; H = nt
19) CCOC(=O)c1sc2ccccc2c1OC(=O)c1ccccc1OC
  A = 4.61µM*; B = -0.9%; C = 3.2%; D = -29.5%; E = ?; F = -13.7%; G = -22.3%; H = ?
20) Nc1ccc(-c2cc3ccccc3oc2=O)cc1
  A = 1.3µM*; B = -1.5%; C = -2.3%; D = -0.5%; E = 28.8%; F = 8.49µM*; G = -0.7%; H = 1.46µM*

Letter code: A = Nrf2 inh; B = Mito fusion act; C = Nrf2 activator; D = A549 tox-1; E = miR-21 reporter; F = FLuc enzyme inh; G = A549 tox-2; H = ARE-Fluc inh
21) COc1ccc(Cl)cc1NC(=O)C1CCN(S(=O)(=O)c2ccc(F)cc2)CC1
  A = ?; B = nt; C = 23.7%; D = -7.1%; E = 19.3%; F = nt; G = nt; H = nt
22) Cc1ccc(NCc2nnc3n2CCCCC3)cc1Cl
  A = nt; B = nt; C = -0.2%; D = 4.3%; E = -11.5%; F = nt; G = nt; H = nt
23) O=S(=O)(c1ccc(Cl)cc1)N1CCCC(c2nc(-c3ccc(F)cc3)no2)C1 (stereo unspecified)
  A = ?; B = 4.2%; C = 0.0%; D = -3.8%; E = nt; F = nt; G = nt; H = nt
24) O=S(=O)(c1ccccc1Cl)N1CCCC1c1nc(-c2ccc(Cl)cc2)no1 (stereo unspecified)
  A = 5.8µM*; B = ?; C = 2.0%; D = -15.4%; E = 10.6%; F = -7.6%; G = 9.9%; H = 13µM*
25) CCOCc1cc(CN2CCN(c3cccc(Cl)c3)CC2)c(O)c2ncccc12
  A = ?; B = nt; C = 0.5%; D = 3.8%; E = -0.4%; F = nt; G = nt; H = nt
26) COc1cc(/C=C(/C#N)c2ccc(C)cc2)ccc1Oc1ccc([N+](=O)[O-])cn1
  A = 2.91µM*; B = 13.2%; C = 0.3%; D = -1.9%; E = -0.1%; F = -11.6%; G = 3.4%; H = ?
27) CC1(C)CC2CC(C)(CN2S(=O)(=O)c2ccc(C(=O)Nc3ccc(Cl)c(S(=O)(=O)N4CCOCC4)c3)cc2)C1 (stereo unspecified)
  A = 5.17µM*; B = 0.1%; C = 1.1%; D = -10.8%; E = ?; F = -1.1%; G = -11.3%; H = 7.31µM*
28) CC1(C)CC2CC(C)(CN2S(=O)(=O)c2ccc(C(=O)Nc3ccc(S(=O)(=O)N4CCOCC4)cc3)cc2)C1 (stereo unspecified)
  A = 1.46µM*; B = -26.7%; C = 0.8%; D = ?; E = 20.1%; F = -0.2%; G = 2.2%; H = 4.11µM*
29) CC(=O)Nc1ccc(S(=O)(=O)N2CC3(C)CC2CC(C)(C)C3)cc1 (stereo unspecified)
  A = -0.2%; B = 1.4%; C = 0.6%; D = -5.7%; E = -4.9%; F = nt; G = nt; H = nt
30) COc1ccc(/C=N/NS(=O)(=O)c2ccccc2)cc1OC(=O)c1ccc(C)cc1
  A = 9.2µM*; B = 4.6%; C = -2.9%; D = -8.6%; E = -3.6%; F = 1.1%; G = -0.7%; H = 7.31µM*
31) COc1ccc(/C=N/NS(=O)(=O)c2ccc(C)cc2)cc1OC(=O)c1ccccc1
  A = nt; B = 1.4%; C = 0.3%; D = 12.4%; E = -6.3%; F = nt; G = nt; H = nt
32) CSc1ccc(CCNC(=O)c2ccc(CS(=O)(=O)c3ccc(Br)cc3)o2)cc1
  A = nt; B = nt; C = 0.3%; D = -1.6%; E = 19.3%; F = nt; G = nt; H = nt

Arranged by value in ARE-Fluc inh (lowest first): some entries from above.
#	SMILES	ARE-Fluc inh
28	CC1(C)CC2CC(C)(CN2S(=O)(=O)c2ccc(C(=O)Nc3ccc(S(=O)(=O)N4CCOCC4)cc3)cc2)C1 (stereo unspecified)	4.11µM*
30	COc1ccc(/C=N/NS(=O)(=O)c2ccccc2)cc1OC(=O)c1ccc(C)cc1	7.31µM*
24	O=S(=O)(c1ccccc1Cl)N1CCCC1c1nc(-c2ccc(Cl)cc2)no1 (stereo unspecified)	13µM*
